US8933133B2, “Animal feeds containing polyols” (ADM Alliance Nutrition, Inc., priority 2006, dated 2015)

Tested on: rumen fluid
Method: Fermentations were performed on two separate days where gas production was monitored every 30 minutes. In addition, pH, ammonia (NH3), and volatile fatty acid (“VFA”) production were measured after 24 hours. Duplicate samples of each compound were evaluated using in vitro rumen fermentations.
Duplicate samples of these compounds were fermented in vitro using rumen fluid as inoculum. Samples were weighed into 150 mL serum bottles (0.3 grams per bottle) using a CO2 atmosphere to provide an anaerobic environment. A standard buffered media was prepared (no additional feed matter was included in the fermentation), degassed, and added to the serum bottles (see, Goering, H. K., and P. J. Van Soest, “Forage Fiber Analyses (Apparatus, Reagents, Procedures, and Some Applications),” Agric. Handbook, No 379, ARS-USDA, Washington, D.C., 1970). Rumen fluid was obtained from a dairy cow, filtered, and added to the serum bottles as 20% of the total fluid addition (30 mL total fluid volume). The serum bottles were sealed, placed in an incubator, and the fermentation was allowed to proceed. Fermentations were performed on two separate days, during which time gas production was monitored every 30 minutes and pH, NH3, and VFA production measured after 24 hours.

Row | Gas 24 h | Substance
1 | 7.6 mL/0.3 g | polyglycerol 4 [PG4]
2 | 7.6 mL/0.3 g | polyglycerol 8 [PG8]
